Antibody variant affinities, Ab-14 light chain, assay B

Target peptide (SARS-CoV-2 spike, HR2 region): PDVDLGDISGINAS

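These sequences belong to a second round, designed from the earlier measurements on random variants of the parent. Group labels follow the data file (Ctrl: baseline library sampled from a position-specific scoring matrix, with some repeated check sequences; GP: Gaussian process model; Gen: genetic algorithm; a sequence that several methods proposed may carry one label only). AlphaSeq pools MATa yeast showing the antibodies with MATalpha yeast showing the peptide. The frequency of each diploid, read from paired DNA barcodes, reflects how well the two displayed proteins bind. Read counts were normalised to the haploid input and turned into Kd by a linear fit to BCL2-family pairs of known affinity, for each replicate. Each pool was mated in six replicate cultures.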

Each scFv is VH, the linker GGGGSGGGGSGGGGS, VL, as in the parent Ab-14, and differs from it in the CDRs of the light chain only.
VH: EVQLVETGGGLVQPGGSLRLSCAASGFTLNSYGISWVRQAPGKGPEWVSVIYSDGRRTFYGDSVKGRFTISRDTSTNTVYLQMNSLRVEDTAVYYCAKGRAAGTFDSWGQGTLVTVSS
VL: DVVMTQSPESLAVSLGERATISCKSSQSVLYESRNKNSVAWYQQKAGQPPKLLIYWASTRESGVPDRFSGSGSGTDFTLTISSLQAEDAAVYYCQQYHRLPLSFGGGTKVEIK

Substitutions are numbered in sequence along the VL above, starting at 1 (not Kabat).
Scale: log10 of Kd in nM, estimated from mating counts; low values are strong binders.
Averages over replicates are reported, and they cover detected replicates only.
A pair that was not seen in that replicate is written "nd"; this usually means weak binding, but a binder can also be missed.
The authors averaged sequences with at least three values out of six and counted those with two or fewer as poor binders.

changes	group	log10 Kd, replicates	mean log10 Kd (nM)	signal with controls
S33E+S62Q+R99E+L102V	Ctrl	nd / nd / nd / nd / nd / nd	nd	0 of 18
S25V+R34N	Ctrl	0.78 / 0.73 / 0.54 / 0.36 / 0.76 / 0.60	0.63	0 of 18
R34D+S38D+E61L+S103L	Ctrl	nd / nd / nd / nd / nd / nd	nd	0 of 18
Q27H+S28E+T59I	Ctrl	1.40 / 1.20 / 1.30 / 2.01 / 2.70 / 1.45	1.67	2 of 18 (2.24)
K24A+R34Y	Ctrl	nd / nd / nd / nd / nd / 2.46	2.46	0 of 18
Y31M+W56Q	Ctrl	nd / 0.72 / 3.45 / 0.97 / 1.63 / 1.25	1.61	0 of 18
S25L+T59S	Ctrl	0.25 / 0.72 / 0.19 / 0.41 / 0.27 / 0.32	0.36	1 of 18 (1.79)
R34S+N37Y+W56S	Ctrl	0.41 / 0.44 / 0.74 / 0.33 / 0.95 / 0.73	0.60	0 of 18
S25M+V39F+W56E+S103A	Ctrl	0.08 / 0.05 / 0.17 / 0.16 / -0.09 / 0.22	0.10	1 of 18 (3.27)
S25C+S33E+N35M+H98A	Ctrl	0.64 / nd / nd / 2.39 / 0.93 / nd	1.32	0 of 18
S25M+S28Q+V29G	Ctrl	0.60 / 0.30 / 0.42 / 0.25 / 0.25 / 0.66	0.41	0 of 18
R34E+W56Q	Ctrl	0.67 / 0.26 / 0.21 / 0.42 / 0.34 / 1.46	0.56	0 of 18
K36V+W56G+S58N+L100A	Ctrl	nd / nd / nd / nd / nd / nd	nd	0 of 18
S38D+S62F	Ctrl	nd / nd / nd / nd / nd / nd	nd	0 of 18
S58I+S62Y	Ctrl	nd / nd / nd / nd / nd / nd	nd	0 of 18
S26G+S28H+W56Q	Ctrl	0.47 / 0.12 / -0.33 / -0.15 / -0.14 / 0.09	0.01	1 of 18 (3.40)
S25L+W56K	Ctrl+GP_Gen	0.70 / 0.44 / 0.48 / 0.78 / 0.44 / 1.05; 0.23 / 0.26 / 0.21 / 0.45 / 0.40 / 0.39	0.49	1 of 36 (2.14)
S25I+S58D+H98T	Ctrl	1.61 / 1.38 / 0.69 / 1.03 / 1.02 / 1.09	1.14	3 of 18 (1.60)
L30V+W56E	Ctrl	0.08 / 0.81 / 0.16 / 0.08 / 0.65 / 0.26	0.34	0 of 18
L30D+K36T+W56E	Ctrl	1.46 / 1.78 / 2.00 / 1.31 / 1.23 / 0.85	1.44	0 of 18
V29T+Y31G	Ctrl	nd / 0.92 / 1.41 / 1.12 / 1.33 / 1.98	1.35	0 of 18
S25I+Q27P+W56G	Ctrl	0.10 / -0.11 / -0.34 / -0.24 / -0.35 / 0.00	-0.16	1 of 18 (1.91)
S26Q+Y31H+K36Y+W56D	Ctrl	0.21 / 0.81 / 0.57 / 0.02 / 0.42 / 0.56	0.43	0 of 18
W56S+Y97Q	Ctrl	nd / nd / nd / nd / nd / nd	nd	3 of 18 (2.20)
R34Y+Q96M+Y97T	Ctrl	nd / nd / nd / 2.98 / nd / nd	2.98	1 of 18 (2.09)
R34K+V39I+W56Q+S62G	Ctrl	0.90 / 0.79 / 0.90 / 0.87 / 1.03 / 0.90	0.90	1 of 18 (2.68)
S25Y+S26E+W56N	Ctrl	0.04 / -0.13 / -0.20 / -0.40 / -0.36 / -0.07	-0.19	2 of 18 (2.64)
Q27L+S28E+V29F+N37R	Ctrl	nd / nd / nd / nd / nd / nd	nd	0 of 18
S26Y+V29I+R34M+N37Y+L102I	Ctrl	nd / nd / nd / nd / nd / nd	nd	0 of 18
S28K+S33E+K36D+W56Q+S62Y	Ctrl	1.36 / 1.23 / 1.28 / 1.80 / 1.83 / 1.64	1.52	0 of 18
S33G+W56G	Ctrl	0.27 / 0.31 / 0.25 / 0.44 / 0.28 / 0.41	0.32	1 of 18 (1.73)
V39I+T59V+Y97P	Ctrl	nd / nd / nd / nd / nd / nd	nd	0 of 18
S25A+Y31V+N37Q+W56K+H98L	Ctrl	0.68 / 0.67 / 0.50 / 0.09 / 0.23 / 0.59	0.46	3 of 18 (3.04)
S103W	Ctrl	2.84 / nd / nd / nd / nd / nd	2.84	1 of 18 (2.06)
N35M+P101D	Ctrl	nd / nd / nd / nd / nd / nd	nd	1 of 18 (1.71)
K24R+Q27N+Y31E+N35E+W56S	Ctrl	0.20 / 0.17 / -0.03 / 0.03 / 0.28 / 0.62	0.21	0 of 18
R34Q+R99S	Ctrl	2.13 / 1.69 / 1.73 / 2.45 / 2.07 / 2.07	2.02	0 of 18
Q27H+R99G	Ctrl	nd / nd / nd / nd / nd / nd	nd	1 of 18 (2.63)
Q27F+Y31F+R34F+W56A+Q96V+R99E+L100D	Ctrl	1.34 / nd / 1.51 / nd / 1.63 / 1.36	1.46	0 of 18
Q27Y+Y31I+R34H+W56N+T59K	Ctrl	1.08 / 0.54 / 0.80 / 0.32 / 0.32 / 0.55	0.60	0 of 18
S25I+V29G+E61S+Q96N	Ctrl	1.14 / 1.21 / 1.05 / 1.90 / 1.02 / 0.96	1.21	0 of 18
Y31E+W56F	Ctrl	1.35 / 1.39 / 1.43 / 1.53 / 1.22 / 1.48	1.40	1 of 18 (3.15)
S26V+E32D+R34D+S38D+W56G+A57G	Ctrl	1.04 / 0.73 / 0.87 / 0.34 / 1.29 / 0.90	0.86	0 of 18
S25N+Q27L+W56D	Ctrl	0.28 / 0.08 / 0.04 / 0.29 / -0.35 / 0.07	0.07	0 of 18

The closing 7 entries, repeated:

changes	group	log10 Kd, replicates	mean log10 Kd (nM)	signal with controls
Q27H+R99G	Ctrl	nd / nd / nd / nd / nd / nd	nd	1 of 18 (2.63)
Q27F+Y31F+R34F+W56A+Q96V+R99E+L100D	Ctrl	1.34 / nd / 1.51 / nd / 1.63 / 1.36	1.46	0 of 18
Q27Y+Y31I+R34H+W56N+T59K	Ctrl	1.08 / 0.54 / 0.80 / 0.32 / 0.32 / 0.55	0.60	0 of 18
S25I+V29G+E61S+Q96N	Ctrl	1.14 / 1.21 / 1.05 / 1.90 / 1.02 / 0.96	1.21	0 of 18
Y31E+W56F	Ctrl	1.35 / 1.39 / 1.43 / 1.53 / 1.22 / 1.48	1.40	1 of 18 (3.15)
S26V+E32D+R34D+S38D+W56G+A57G	Ctrl	1.04 / 0.73 / 0.87 / 0.34 / 1.29 / 0.90	0.86	0 of 18
S25N+Q27L+W56D	Ctrl	0.28 / 0.08 / 0.04 / 0.29 / -0.35 / 0.07	0.07	0 of 18

Empty control strains, which show no peptide, gave a signal in 4% of pairings with all light chain designs; the median was 2.64 and 95% of these signals were weaker than 1.59. No background was subtracted. Also given: how often the same scFv was detected with the empty control strains, with their mean in brackets.
Where one sequence has several entries in the source, the replicates are listed entry by entry, parted by semicolons.
The range of this assay differs from that of the first round, and the authors advise against merging the two.
Of ten entries with the parent sequence, four were seen in most replicates (averages 0.34 to 2.37), three in one and three in none, so single entries are noisy.

Values reported by Li et al. 2023, doi:10.1038/s41467-023-39022-2 (FLAb copy).